pIC50: −log10 of the molar value.
System: sAPPβ release, SH-SY5Y cells
Experiment: sAPPβ release assay
Type: cell-based
Settings: 17 h incubation
Description: SH-SY5Y cells were cultured in DMEM/F-12 with Glutamax, 10% FCS and 1% non-essential amino acids and cryopreserved and stored at −140° C. at a concentration of 7.5−9.5×10^6 cells per vial. Thaw cells and seed at a conc. of around 10000 cells/well in DMEM/F-12 with Glutamax, 10% FCS and 1% non-essential amino acids to a 384-well tissue culture treated plate, […] cell susp/well. The cell plates were then incubated for 7-24 h at 37° C., 5% CO2. The cell medium was removed, followed by addition of 30 μL compound diluted in DMEM/F-12 with Glutamax, 10% FCS, 1% non-essential amino acids and 1% PeSt to a final conc. of 1% DMSO. The compounds were incubated with the cells for 17 h (overnight) at 37° C., 5% CO2. Meso Scale Discovery (MSD) plates were used for the detection of sAPPβ release. MSD sAPPβ plates were blocked in 1% BSA in Tris wash buffer (40 μL/well) for 1 h on shake at r.t. and washed 1 time in Tris wash buffer (40 μL/well). 20 μL of medium was transferred to the pre-blocked and washed MSD sAPPβ microplates, and the cell plates were further used in an ATP assay to measure cytotoxicity. The MSD plates were incubated with shaking at r.t. for 2 h and the media discarded. 10 μL detection antibody was added (1 nM) per well followed by incubation with shaking at r.t. for 2 h and then discarded. 40 μL Read Buffer was added per well and the plates were read in a SECTOR Imager.

pIC50	pIC50 (Homo sapiens)	Structure (SMILES)
9.10	–	CO[C@H]1CC[C@]2(CC1)Cc1cc(F)c(-c3cc(Cl)cc(C#N)c3)cc1[C@@]21N=C(C)C(N)=N1 (single isomer, unassigned; isomer 1) [6 Isomer 1]
6.01	–	CO[C@H]1CC[C@]2(CC1)Cc1cc(F)c(-c3cc(Cl)cc(C#N)c3)cc1[C@]21N=C(C)C(N)=N1 (single isomer, unassigned; isomer 2) [6 Isomer 2]
–	6.75	COC1CCC2(CC1)Cc1cc(F)c(Br)cc1C21N=C(C)C(N)=N1 (stereo not drawn) [Example 4, 6′-Bromo-5′-fluoro-4-methoxy-5″-methyl-3′H-dispiro[cyclohexane-1,2′-indene-1′,2″-imidazol]-4″-amine]
